The values below are quoted from earlier work in patent US9617230B2, “Creatine prodrugs, compositions and methods of use thereof” (Farmington Pharma Development, priority 2014, dated 2017).

Structures are written as SMILES.

The conditions of this data set: ALS; cited from earlier work.

Consider `Nc1nc2ccc(OC(F)(F)F)cc2s1` [riluzole], for which the extension of survival result was “about three”.
